Water solubility values, as collected for the OPERA models

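These are experimental values that the OPERA curators gathered from public databases to train and test their QSAR models. A listed value is a point estimate from one report or more. Conditions of the individual experiments are not part of the data. Where a salt, mixture or single isomer is drawn, the source does not say that exactly this form was tested. Unmarked limits or estimates from the upstream databases cannot be ruled out.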

Water solubility is log10 of mol/L, nominally at 25 °C; higher is more soluble.

- CC(C)(C)CCCCCC(=O)[O-].CC(C)(C)CCCCCC(=O)[O-].[Zn+2]: water solubility -2.721 (log10 mol/L)
- O=c1[nH]c(=O)c2[nH]c(=O)c(=O)[nH]c2[nH]1: water solubility -4.057 (log10 mol/L)
- O=S(=O)([O-])c1cc(Nc2nc(Nc3ccccc3)nc(Nc3ccccc3)n2)ccc1/C=C/c1ccc(Nc2nc(Nc3ccccc3)nc(Nc3ccccc3)n2)cc1S(=O)(=O)[O-].[Na+].[Na+]: water solubility -3.826 (log10 mol/L)
- O=C(OCC(=O)N(CCO)CCO)c1ccccc1: water solubility 0.43 (log10 mol/L)
- COc1ccc(NC(N)=O)cc1Cl: water solubility -1.83 (log10 mol/L)
- C1CC1: water solubility -2.043 (log10 mol/L)
- C=C(C)[C@H]1CC[C@H](C)C(=O)C1: water solubility -2.18 (log10 mol/L)
- CC(C)(C)c1cc(CCC(=O)OCCCCCCOC(=O)CCc2cc(C(C)(C)C)c(O)c(C(C)(C)C)c2)cc(C(C)(C)C)c1O: water solubility -8.106 (log10 mol/L)
- COC1CC2CC1C1CC(C=O)CC21 (centres undefined): water solubility -1.651 (log10 mol/L)
- Nc1cccc2ccc(S(=O)(=O)O)cc12: water solubility -1.68 (log10 mol/L)
- O=C1CCCCCNC(=O)CCCCCNC(=O)CCCCCNC(=O)CCCCCN1: water solubility -2.811 (log10 mol/L)
- OCC1N=C(O)C(CO)N=C1O (centres undefined): water solubility -1.709 (log10 mol/L)
- CC(C)NCC(O)c1ccc(NS(C)(=O)=O)cc1 (centres undefined): water solubility -2.542 (log10 mol/L)
- CCC(C)(NC=O)C(=O)O (racemic): water solubility -0.582 (log10 mol/L)
- NC(=O)c1ccc([N+](=O)[O-])cc1: water solubility -1.5 (log10 mol/L)
- CCN1CCC[C@H]1CNC(=O)c1c(OC)ccc(Br)c1OC: water solubility -3.466 (log10 mol/L)
- Cc1cc(N(CCO)CCO)ccc1N=Nc1ccc([N+](=O)[O-])cc1[N+](=O)[O-]: water solubility -6 (log10 mol/L)
- CC(C)(NCCNC(C)(C)C(=O)O)C(=O)O: water solubility -2.065 (log10 mol/L)
- O=C(O)C(=O)CO: water solubility -0.318 (log10 mol/L)
- N=C(N)NCC(=O)O: water solubility -1.51 (log10 mol/L)
- CCOC(N)=O: water solubility 0.85 (log10 mol/L)
- CN1[C@@H](C(=O)O)CC[C@H]1C(=O)O: water solubility -0.443 (log10 mol/L)
- CC(=O)C=C(C)NC1CCCCC1NC(C)=CC(C)=O (centres undefined): water solubility -1.699 (log10 mol/L)
- CCCCCN1C(=O)CCC1=O: water solubility -1.105 (log10 mol/L)
- Cc1ccc(C(N)=O)cc1: water solubility -1.19 (log10 mol/L)
- N[C@@H](CCC(=O)N[C@@H](CS)C(=O)NCC(=O)O)C(=O)O: water solubility -0.021 (log10 mol/L)
- CCC(C)(CC(=O)O)C(=O)O (centres undefined): water solubility -0.017 (log10 mol/L)
- CCC(C)N1C(=O)c2ccccc2C1=O (centres undefined): water solubility -2.91 (log10 mol/L)
- Cc1cc(C)cc(NC(=O)N(C)C)c1: water solubility -2.22 (log10 mol/L)
- CCOC(=O)C1=C(COCCN2C(=O)c3ccccc3C2=O)NC(C)=C(C(=O)OC)C1c1ccccc1Cl (centres undefined): water solubility -4.501 (log10 mol/L)
- Cc1cccc(NC(N)=O)c1: water solubility -1.4 (log10 mol/L)
- Nc1cccc(C(=O)O)c1: water solubility -1.366 (log10 mol/L)
- NC(=O)Nc1cccc(Cl)c1: water solubility -2 (log10 mol/L)
- CC/C=C/CCCCCCCCCCOC(C)=O: water solubility -4.67 (log10 mol/L)
- OCCOC1(F)OC(F)(F)OC1OC(F)(F)F (centres undefined): water solubility -1.817 (log10 mol/L)

Again, the 5 entries with the lowest water solubility:

| compound | water solubility (log10 mol/L) |
|---|---|
| CC(C)(C)c1cc(CCC(=O)OCCCCCCOC(=O)CCc2cc(C(C)(C)C)c(O)c(C(C)(C)C)c2)cc(C(C)(C)C)c1O | -8.106 |
| Cc1cc(N(CCO)CCO)ccc1N=Nc1ccc([N+](=O)[O-])cc1[N+](=O)[O-] | -6 |
| CC/C=C/CCCCCCCCCCOC(C)=O | -4.67 |
| CCOC(=O)C1=C(COCCN2C(=O)c3ccccc3C2=O)NC(C)=C(C(=O)OC)C1c1ccccc1Cl (centres undefined) | -4.501 |
| O=c1[nH]c(=O)c2[nH]c(=O)c(=O)[nH]c2[nH]1 | -4.057 |

Data: OPERA 2.9 data sets, kmansouri/OPERA on GitHub.